# Bioassay records from PubChem.
# Only some compounds are listed: those with a hit (about 0.46% of all), similar ones and a draw of the others.
# HCMV NEC inh: inhibitors of HCMV UL50-UL53 nuclear egress complex interaction | hit rate 0.15% among 190,000 | inhibition, % (concentration not given with the values) | AID 1918969 | HTRF UL50-UL53 interaction, normalized percent inhibition; in the data active = inhibition above about 27%, passing the limit was not always enough
# GIV Gai3 FP: blocks GIV peptide binding to rat Galpha-i3; Galpha-i3/FITC-GIV peptide fluorescence polarization, 90 min; stronger effect = lower value; scaled: aluminum fluoride 0%, vehicle 100%; P08753; hit rate 0.42% among 210,000; AID 1224905; percent of control (FP), % (test concentration not listed);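 active = replicate mean at 85% of control or lower, very high polarization wells dropped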;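 also: wells of about 15 µL received 100 nL stock; the first replicate is given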
# GIV-Gai FP conf: GIV-Galpha-i3 inhibition, FP confirmation; shares compounds with GIV Gai3 FP; FITC-GIV peptide binding to Galphai3, fluorescence polarization; active compounds read low; fluorescence polarization, mP at 100 µM; hit rate 38% among 580; AID 1259350;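 active = inhibition score of 15 or more, meaning 100 minus mean polarization as percent of control over three replicates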;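 also: lower mP means peptide displaced from Galphai3 so more inhibition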
# GIV-Gai AS conf: confirmation of inhibitors of GIV binding to human Galpha-i3; shares compounds with GIV Gai3 FP; AlphaScreen Galphai3-GIV binding, purified proteins, 90 min; active compounds read low; AlphaScreen counts at 100 µM; hit rate 39% among 580;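 active = inhibition score at or above a set limit, where the score is 100 minus the three-replicate mean percent of control signal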
# * = called active by the depositor; x = not tested or not shown.
# Screens by letter: A = HCMV NEC inh; B = GIV Gai3 FP; C = GIV-Gai FP conf; D = GIV-Gai AS conf
1) Oc1ccc2ccccc2c1C=Nc1cccn2cc(-c3ccccc3)nc12
  A: x	B: -9.9*	C: 9.8*	D: 37990
2) COc1ccccc1NC(=O)c1c(N=Cc2c(O)ccc3ccccc23)cnn1C
  A: x	B: 108	C: x	D: x
3) COc1ccc(-n2c(C)c3c(C)nnc(C)c3c2C)cc1
  A: -61	B: x	C: x	D: x
4) O=C(COC(=O)c1cccc(S(=O)(=O)N2CCCC2)c1)Nc1cccc(F)c1
  A: -18	B: x	C: x	D: x
5) O=c1c(=NNc2nn[nH]n2)c(=O)c2ccccc12
  A: -12	B: 40*	C: 39*	D: 17853*
6) O=c1c(=NNc2ccccc2)c(=O)c2ccccc12
  A: -76	B: 111	C: x	D: x
7) CC(=O)SCCC(=O)N1CCn2c3c(c4cc(C)ccc42)CCCC31 (stereo unspecified)
  A: -7	B: 98	C: x	D: x
8) CCOCCn1c(=NC(=O)c2ccc3c(c2)OCCO3)sc2cc(OCC)ccc21
  A: x	B: 104	C: x	D: x
9) COCCn1c(=NC(=O)c2ccc3c(c2)OCCO3)sc2cc(NC(C)=O)ccc21
  A: x	B: 80*	C: 80	D: 35824
10) Cc1cc2c(cc1S(=O)(=O)N(C)CC(=O)NC1CCCC1)OCC(=O)N2
  A: x	B: 103	C: x	D: x
11) Cc1ccn(CCC(=O)O)n1
  A: -24	B: 103	C: x	D: x
12) Cc1ccc(C)n1Cc1ccc(C(=O)O)cc1
  A: 70*	B: 33*	C: 48*	D: 3139*
13) Cc1ccc(C)n1CCC(=O)O
  A: -1	B: 71*	C: 60	D: 3780*
14) Cc1cc(C)n(Cc2ccc(C(=O)O)cc2)n1
  A: -14	B: x	C: x	D: x
15) COc1ccc(/C=C(\C#N)C(=O)Nn2c(-c3cc(OC)cc(OC)c3)nc3ccccc3c2=O)cc1
  A: 13	B: 107	C: x	D: x
16) CN(C)CCNC(=O)c1ccc(-n2c(-c3ccccc3)nc3cccnc32)cc1
  A: -15	B: 83*	C: 60	D: 33901
17) O=C(NCCn1c(-c2ccccc2)nc2cccnc21)c1ccc(Cl)cc1
  A: -17	B: 110	C: x	D: x
18) CC(C#N)(Nc1ccccc1)c1ccncc1 (stereo unspecified)
  A: 0	B: 105	C: x	D: x
19) CCOC(=O)N1CC=C2C(C#N)=C(N)C(C#N)(C#N)C(CC)C2C1 (stereo unspecified)
  A: -33	B: 126	C: x	D: x
20) CCCC1C2CN(C(C)C)CC=C2C(C#N)=C(N)C1(C#N)C#N (stereo unspecified)
  A: -62	B: 79*	C: 66	D: 23056
21) CCCCNC(=O)CSc1nnc(-c2cccnc2)o1
  A: 8	B: 106	C: x	D: x
22) CCc1c(C)c(C#N)c2nc3ccccc3n2c1-n1nc(C)cc1C
  A: -41	B: 86	C: 75	D: 35204
23) CCc1c(C)c(C#N)c2nc3ccccc3n2c1N1CCCC1
  A: -10	B: 101	C: x	D: x
24) Cc1ccc(Cn2c3ccccc3c3cnn(CC(=O)NCc4ccccc4Cl)c(=O)c32)cc1
  A: -16	B: 103	C: x	D: x
25) CCn1cc(/C=C2/C(=O)N(c3ccccc3)c3ccccc32)c2ccccc21
  A: x	B: 53*	C: 69	D: 38150

# A draw from above in order of heavy-atom count, ascending.
# Screens by letter: A = HCMV NEC inh; B = GIV Gai3 FP; C = GIV-Gai FP conf; D = GIV-Gai AS conf
11) Cc1ccn(CCC(=O)O)n1
  A: -24	B: 103	C: x	D: x
12) Cc1ccc(C)n1Cc1ccc(C(=O)O)cc1
  A: 70*	B: 33*	C: 48*	D: 3139*
8) CCOCCn1c(=NC(=O)c2ccc3c(c2)OCCO3)sc2cc(OCC)ccc21
  A: x	B: 104	C: x	D: x

# Next entries follow.
# Screens by letter: A = HCMV NEC inh; B = GIV Gai3 FP; C = GIV-Gai FP conf; D = GIV-Gai AS conf
26) CCn1cc(/C=C2/C(=O)N(c3ccccc3)N=C2C)c2ccccc21
  A: -41	B: x	C: x	D: x
27) O=C1NCCNC1Cc1ccc2ccccc2n1 (stereo unspecified)
  A: -7	B: x	C: x	D: x
28) O=C1OC(Nc2ccc(S(=O)(=O)Nc3ccccn3)cc2)c2ccccc21 (stereo unspecified)
  A: x	B: 111	C: x	D: x
29) O=c1[nH]cc(NCCO)c(=O)[nH]1
  A: -7	B: 66*	C: 44*	D: 47941
30) CC(O)CNc1c[nH]c(=O)[nH]c1=O (stereo unspecified)
  A: -21	B: 100	C: x	D: x
31) CC(Sc1ccc2c(c1)OCCO2)C(=O)Nc1ccccc1C#N (stereo unspecified)
  A: -6	B: x	C: x	D: x
32) O=C1N=c2ccccc2=C1N=Nc1c(O)[nH]c2ccccc12
  A: -42	B: 57*	C: 51*	D: 9884*
33) O=C1CSC(N=Nc2c(O)[nH]c3ccccc23)=N1
  A: -84	B: 110	C: x	D: x
34) C=C(C)CSc1nc2sc3c(c2c(=O)n1Cc1ccccc1)CC(C)(C)OC3
  A: 8	B: 92	C: x	D: x
35) CC(C)CN(CC(C)C)C(=O)CSc1nnc(-c2cccc(Cl)c2)n1N
  A: -7	B: x	C: x	D: x
36) COc1ccc2c(C)c(CC(=O)NCc3ccccc3)c(=O)oc2c1
  A: -11	B: 102	C: x	D: x
37) Cn1c(=O)n(CC(=O)O)c(=O)c2c1nc1n2CCN1c1ccc(F)cc1
  A: 0	B: 85*	C: 64	D: 39054
38) Cn1c(=O)n(CC(=O)O)c(=O)c2c1nc1n2CCCN1c1ccc(F)cc1
  A: -8	B: 93	C: x	D: x
39) COC(=O)c1c(NC(=O)c2nn(-c3ccc(F)cc3)ccc2=O)sc2c1CCC2
  A: -9	B: 104	C: x	D: x
40) COc1ccc2c(c1)N(C)/C(=c1/s/c(=C3/C(=O)N(C)C(=S)N3C)n(Cc3ccccc3)c1=O)S2
  A: x	B: 111	C: x	D: x
41) COc1ccc2c(c1)N(C)/C(=c1/s/c(=C3/C(=O)N(c4ccccc4)N=C3C)n(C)c1=O)S2
  A: -34	B: 73*	C: 75	D: 34539
42) O=C1NN(c2ccccc2)C(=O)/C1=C\C=C\c1ccco1
  A: x	B: 118	C: x	D: x
43) OC(c1ccc(C(F)(F)F)cc1)c1cccnc1 (stereo unspecified)
  A: x	B: 100	C: x	D: x
44) Oc1ccc(NCc2ccccc2OCc2ccc(Cl)cc2)cc1
  A: 26	B: 104	C: x	D: x
45) CCOc1cc(CNc2ccc(O)cc2)ccc1OCc1ccc(Cl)cc1
  A: 14	B: 76*	C: 61*	D: 10130*
46) Cn1cc(C#N)c2ccccc21
  A: -8	B: x	C: x	D: x
47) O=S(=O)(c1ccc2c(c1)CCCN2)N1CCCCC1
  A: -33	B: x	C: x	D: x
48) CCN(CC)c1ccc2c(c1)CCCN2
  A: -16	B: 53*	C: 63	D: 11170*
49) CCc1ccc(C2=CC(c3sccc3C)n3ncnc3N2)cc1 (stereo unspecified)
  A: x	B: 104	C: x	D: x
50) Cc1ccsc1C1C=C(c2cccc(Br)c2)Nc2ncnn21 (stereo unspecified)
  A: x	B: 81*	C: 47*	D: 49839
51) NCCSC1CC(=O)N(c2ccc(Cl)cc2)C1=O (stereo unspecified)
  A: -1	B: 104	C: x	D: x
52) CCN(CC)S(=O)(=O)c1cccc(C(=O)N2CCc3ccccc32)c1
  A: -34	B: x	C: x	D: x
53) O=C(CSc1ccc(F)cc1)N1CCCC1
  A: -7	B: 104	C: x	D: x
54) Cc1ccc2c(c1)c1c3n2C=CNC3CCC1 (stereo unspecified)
  A: -75	B: 82*	C: 52*	D: 25813*
55) Cc1ccc2c(c1)c1c3n2CCCNC3CCC1 (stereo unspecified)
  A: -11	B: 102	C: x	D: x
56) CCCSc1nnc2c(n1)OC(c1ccccc1OCC(=O)OCC)Nc1ccccc1-2 (stereo unspecified)
  A: -16	B: 21*	C: 59	D: 34096*
57) CCCCSc1nnc2c(n1)OC(/C=C/c1ccccc1[N+](=O)[O-])Nc1ccccc1-2 (stereo unspecified)
  A: -31	B: 80*	C: 60	D: 33401*
58) CCCSc1nnc2c(n1)OC(c1ccco1)Nc1ccccc1-2 (stereo unspecified)
  A: -36	B: 78*	C: 60	D: 5688*
59) CCCSc1nnc2c(n1)OC(c1ccccc1)Nc1ccccc1-2 (stereo unspecified)
  A: -12	B: 109	C: x	D: x
60) CCOC(=O)COc1ccccc1C1Nc2ccccc2-c2nnc(SC)nc2O1 (stereo unspecified)
  A: -26	B: 105	C: x	D: x
61) CSc1nnc2c(n1)OC(/C=C/c1ccccc1[N+](=O)[O-])Nc1ccccc1-2 (stereo unspecified)
  A: 3	B: 105	C: x	D: x
62) CCSc1nnc2c(n1)OC(c1cc(Br)ccc1OC)Nc1ccccc1-2 (stereo unspecified)
  A: -4	B: 106	C: x	D: x
63) CCSc1nnc2c(n1)OC(c1ccc(Br)cc1)Nc1ccccc1-2 (stereo unspecified)
  A: -10	B: 24*	C: 30*	D: 29425
